What was measured:
CyP A = CyP A (Homo sapiens, UniProt P62937); conditions: 10 µM
spinal motor neurons = assay: Neuroprotection assay: THA neurotoxicity in spinal cord slice cultures; conditions: THA 200 μM + compound 10 μM, primary cultures of spinal motor neurons

Amino acid sequences for entries named in this document (tags omitted).
UniProt P62937, whole entry: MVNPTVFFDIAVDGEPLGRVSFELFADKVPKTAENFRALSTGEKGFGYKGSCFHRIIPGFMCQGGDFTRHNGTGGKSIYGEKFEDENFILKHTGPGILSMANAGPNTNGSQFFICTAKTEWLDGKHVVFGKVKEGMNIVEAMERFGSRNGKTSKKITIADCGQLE

inhibition (CyP A) [%] | SMILES | neuroprotective activity (number of viable neurons) (spinal motor neurons)
100 | O=C(NCC(c1ccccc1)c1ccccc1)Nc1cccc(NC(=O)NCC(c2ccccc2)c2ccccc2)c1 | –
– | Cc1ccc(NC(=O)N(Cc2ccccc2)Cc2ccccc2)cc1NC(=O)N(Cc1ccccc1)Cc1ccccc1 | displays neuroprotective activity
– | O=C(Nc1cccc(NC(=O)Nc2ccon2)c1)Nc1ccon1 | displays neuroprotective activity
– | COc1cccc(NC(=O)NC2CCCC(NC(=O)Nc3cccc(OC)c3)C2)c1 (stereo not shown) | displays neuroprotective activity

Source: patent US6677376B1, “Non-peptidic cyclophilin binding compounds and their use” (Guilford Pharmaceuticals, Inc., priority 1999, dated 2004)
